Laboratory results as given in paper PMC9669179 (Epilepsia, 2022).

Conditions: Sprague Dawley, rat, in vivo

CCCC(CCC)C(=O)O [VPA, sodium valproate]
Plasma Dose Prop (AUC): 1.58
